Source: US20130084328A1, “METHYLATED CODING AND NON-CODING RNA GENES AS DIAGNOSTIC AND THERAPEUTIC TOOLS FOR HUMAN MELANOMA” (Sanford-Burnham Medical Research Institute, priority 2011, published 2013)

Key:
Assay type in all cases: cell-based, human
WM1552C cells [1] = experiment: growth (proliferation) assay, miR-34b; conditions: WM1552C/34b vs WM1552C and WM1552C/VO, to 96 hrs
Method: Exponentially growing cells were trypsinized and counted with the help of a Countess cell counter (Invitrogen/Life Technologies) and seeded at 10^4 cells/cm^2 (0.1×10^6 cells/35-mm petri dish), which was taken as the initial value (N0) for all growth kinetics measurements. Cells were harvested at 24-hrs intervals up to 72 hrs by trypsinization. A minimum of 6 observations spread over 2 independent experiments were taken for determining the proliferation rate ‘pR’:
Where N0=number of cells at 0 h, and Nt=number of cells at time ‘t’. The mean doubling time of untreated cells was calculated from the exponential region of the growth curves, in this case between 24 hrs and 72 hrs.

WM1552C cells [2] = experiment: cell adhesion assay, miR-34b; conditions: WM1552C/34b vs WM1552C/VO, from 15 minutes after plating
Method: Trypsinized cells were counted, and 50,000 cells per well were seeded into 96-well plates. At 5, 15, and 30 min after seeding, floating cells were aspirated by rinsing the wells with PBS. The remaining cells in the wells were fixed and stained with 0.5% crystal violet in 50% methanol. The stain in the fixed cells was dissolved with acetic acid, and cell density was determined spectrophotometrically by measuring absorbance at OD560. Each sample was assayed in triplicate at each time point, and each experiment was repeated twice.

WM1552C cells [3] = experiment: wound-healing migration assay, miR-34b; conditions: WM1552C/34b
Method: Cell monolayers were then gently scratched with a pipette tip across the entire diameter of the dish and extensively rinsed with medium to remove all cellular debris. The surface area of the denuded surface was quantified immediately after wounding and again every 20 minutes for 24 hrs on the Nikon Bio Station IM. The extent of wound closure was determined by calculating the ratio of the surface area between the remaining wound edges for each time point to the surface area of the initial wound. […] The surface area was calculated using NIS Elements software and performed in triplicate.

WM1552C cells [4] = experiment: Matrigel invasion assay, miR-34b; conditions: WM1552C/34b vs WM1552C and WM1552C/VO, 48 hrs
Method: BD BioCoat™ growth factor reduced insert plates (Matrigel™ Invasion Chamber 12 well plates) were prepared by rehydrating the BD Matrigel™ matrix coating in the inserts with 0.5 ml of culture medium for 2 hrs at 37° C. The rehydration solution was carefully removed from the inserts, 0.75 mL Complete Tu medium containing chemoattractant (1% FBS) was added to the lower wells of the plate, and 0.5 mL of cell suspension (1×10^4 cells, in serum-free medium) was added to each insert well. […] Invasion assay plates were incubated for 48 hrs at 37° C. Following incubation, the non-invading cells were removed by scrubbing the upper surface of the insert. The cells on the lower surface of the insert were stained with crystal violet and each trans-well membrane mounted on a microscopic slide for visualization and analysis. The slides were scanned using the Scanscope digital slide scanner, and the number of cells migrating was counted using Aperio software.

miR-34b: nucleic acid exemplified by SEQ ID NO:2 (CAAUCACUAACUCCACUGCCAU); stably expressed in WM1552C from pcDNA4/H1-3TetR/miR-34b (WM1552C/34b) (CAAUCACUAACUCCACUGCCAU)
proliferation (WM1552C cells [1]): decreased proliferation | cell adhesion (WM1552C cells [2]): decreased cell adhesion | distance migrated relative to WM1552C/VO cells (WM1552C cells [3]; by the end of 8 hrs): less than half of the distance | time to close the scratch (WM1552C cells [3]; WM1552C/VO 16 hrs): 24 h | cell invasion: migrated slower (WM1552C cells [4]): 46%
